Results on one substance are retold here after patent publication US20120077760A1, “NOVEL SALTS OF SITAGLIPTIN” (LEK Pharmaceuticals D.D., priority 2009, published 2012).

The series can be described thus: Solubility of sitagliptin salts in water at 25° C.

On to “Sitagliptin Hydrogensulfate [Hydrogen sulfate]”, for which the “solubility in water (in words)” value is given as “very good”. Further, where the note is “25° C.”, the Solubility in water was over 300 mg/mL.
